The text below walks through data of PubChem BioAssay (Tox21).

Amino acid sequences for entries named in this document (tags omitted).
UniProt P03372, whole entry: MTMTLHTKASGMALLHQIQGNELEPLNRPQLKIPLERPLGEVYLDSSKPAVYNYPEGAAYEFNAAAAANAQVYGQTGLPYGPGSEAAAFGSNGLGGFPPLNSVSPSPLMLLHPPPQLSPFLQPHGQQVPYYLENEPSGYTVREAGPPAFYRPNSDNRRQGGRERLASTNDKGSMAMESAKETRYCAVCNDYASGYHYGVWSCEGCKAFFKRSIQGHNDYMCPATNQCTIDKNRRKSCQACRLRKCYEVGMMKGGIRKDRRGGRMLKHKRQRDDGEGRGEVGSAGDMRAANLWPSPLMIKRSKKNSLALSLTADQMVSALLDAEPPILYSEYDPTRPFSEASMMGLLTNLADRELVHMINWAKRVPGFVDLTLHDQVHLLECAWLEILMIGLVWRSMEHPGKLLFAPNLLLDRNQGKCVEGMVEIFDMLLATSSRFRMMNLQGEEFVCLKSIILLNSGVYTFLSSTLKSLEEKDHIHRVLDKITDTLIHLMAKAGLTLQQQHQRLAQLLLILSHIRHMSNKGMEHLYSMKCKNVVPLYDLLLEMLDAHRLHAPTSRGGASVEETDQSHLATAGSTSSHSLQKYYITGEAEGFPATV
UniProt O75469, whole entry: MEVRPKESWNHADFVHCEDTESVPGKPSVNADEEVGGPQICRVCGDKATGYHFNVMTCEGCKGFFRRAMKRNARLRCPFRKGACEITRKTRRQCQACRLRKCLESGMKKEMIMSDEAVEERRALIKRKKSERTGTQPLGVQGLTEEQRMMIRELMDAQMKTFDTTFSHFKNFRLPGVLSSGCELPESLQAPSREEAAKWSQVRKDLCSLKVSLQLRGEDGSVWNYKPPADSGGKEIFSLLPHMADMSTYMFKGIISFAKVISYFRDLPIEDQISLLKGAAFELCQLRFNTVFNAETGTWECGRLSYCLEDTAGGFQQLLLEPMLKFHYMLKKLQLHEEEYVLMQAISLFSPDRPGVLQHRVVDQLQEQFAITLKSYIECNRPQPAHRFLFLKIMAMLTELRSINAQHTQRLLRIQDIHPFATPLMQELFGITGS
UniProt Q14994, whole entry: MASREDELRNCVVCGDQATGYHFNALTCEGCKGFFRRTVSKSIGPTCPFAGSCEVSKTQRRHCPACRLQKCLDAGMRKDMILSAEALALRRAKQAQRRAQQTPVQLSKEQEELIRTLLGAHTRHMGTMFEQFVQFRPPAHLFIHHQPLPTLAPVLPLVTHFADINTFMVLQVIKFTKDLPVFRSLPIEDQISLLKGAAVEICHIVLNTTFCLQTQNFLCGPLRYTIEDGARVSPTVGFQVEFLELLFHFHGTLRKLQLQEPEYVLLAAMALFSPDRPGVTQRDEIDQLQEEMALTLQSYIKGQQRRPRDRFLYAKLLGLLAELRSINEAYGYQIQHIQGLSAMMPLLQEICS

The entries are a selection whose mix differs from that of the whole data set. Results filed as inconclusive are left out. Active and inactive are the calls of the source. Unless noted, the call rests on the fitted dose curve; in most records, active means well fitted curve in the direction sought with a large enough effect in the repeat runs; inconclusive means weak or mixed curves; inactive means no such curve, though single readings can be large; an effect the other way counts as inactive or inconclusive.

Test [1] in a line: qHTS assay to identify small molecule agonists of the peroxisome proliferator-activated receptor delta (PPARd) signaling pathway - cell viability counter screen (AID 743211). Further: on the % scale 0 is the no-effect control and ±100 the full control effect; nearly all actives have a fitted effect of over 55% in size. An outline of the steps: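 qHTS cell viability: PPARd-bla HEK293H; 17 h cpd, 37C; CellTiter-Glo, luminescence at 30 min RT.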
The nature of test [2]: qHTS assay to identify small molecule antagonists of the estrogen related receptor signaling pathway with the pleiotropic PPARgamma coactivator (PGC) from Tox21 10K library (AID 1224841; call rule not given here; further: potency means the concentration at half of the fitted maximal effect; actives are mostly falling curves and most rising ones were filed inactive; nearly all actives have a fitted effect of over 50% in size). To be noted: PGC/ERR reporter cell line, ONE-Glo luciferase, 18 h. A general note: In qHTS, concentration-response curves come from the screen itself.
A short description of test [3]: qHTS RealTime-Glo MT Cell Viability Assay in HepG2 cells - 24 hour (AID 1224867). Further: on the % scale 0 is the no-effect control and ±100 the full control effect; nearly all actives have a fitted effect of over 50% in size. In a few lines: (§1)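 HepG2 cells (600/well) were dispensed with RealTime-Glo reagents, incubated 5 h at 37 °C, then treated with compounds in DMSO for up to 40 h. Nonlytic NanoLuc luminescence reflecting viable cells was read at each stated time point.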
Test [4] deals with Estrogen receptor (Homo sapiens) (UniProt P03372). As to the kind of experiment: qHTS assay to identify small molecule antagonists of the estrogen receptor alpha (ER-alpha) signaling pathway using the BG1 cell line in the presence of 0.1 nM 17-beta-estradiol (AID 1259244). Further: potency means the concentration at half of the fitted maximal effect; nearly all actives have a fitted effect of over 50% in size. To be noted: VM7Luc4E2 (BG1) ERE-luciferase, antagonist mode, 0.1 nM E2, 22 h.
A short description of test [5]: Caspase-3/7 induction in CHO-K1 cells by small molecules, qHTS cell viability counter screen (AID 1346979). Further: on the % scale 0 is the no-effect control and ±100 the full control effect; nearly all actives have a fitted effect of over 35% in size. In a few lines: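 CellTiter-Fluor viability check, qHTS format: wild-type CHO-K1, 16hr compound treatment, 1hr reagent incubation, fluorescence read.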
Test [6] concerns the target Estrogen receptor (Homo sapiens) (UniProt P03372). The test can be described thus: qHTS assay to identify small molecule agonists of the estrogen receptor alpha (ER-alpha) signaling pathway (AID 743075; calls by dose curve;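 further: HEK293 GripTite cells with ER-alpha and UAS-driven beta-lactamase reporter; on the % scale 0 is the no-effect control and ±100 the full control effect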). To be noted: HEK293 ER-alpha-UAS-bla, beta-lactamase FRET ratio, 18 h; at 70.1 µM (top of the series).
A short description of test [7]: qHTS assay to identify small molecule agonists of the vitamin D receptor (VDR) signaling pathway - cell viability counter screen (AID 743224). Further: on the % scale 0 is the no-effect control and ±100 the full control effect; nearly all actives have a fitted effect of over 50% in size. In a few lines: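 VDR-bla cells, 4 h after plating, exposed to compounds for 16 h at 37C; viability then read in the same wells as CellTiter-Glo luminescence after 30 min at room temperature, following the bla FRET read.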

Test [8] in a line: qHTS assay to identify small molecule agonists of the constitutive androstane receptor (CAR) signaling pathway - cell viability counter screen (AID 1224836). Further: on the % scale 0 is the no-effect control and ±100 the full control effect; nearly all actives have a fitted effect of over 45% in size. An outline of the steps: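 Using CellTiter-Fluor, viability of HepG2 cells harbouring hCAR and CYP2B6-2.2kb was measured following 23 h incubation with a 15-concentration compound series plus PK11195 (0.75 uM final).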
Test [9] can be described thus: qHTS RealTime-Glo MT Cell Viability Assay in HepG2 cells - 16 hour (AID 1224885). An outline of the steps:
as §1

Test [10] is described as follows: qHTS assay to identify small molecule HDAC inhibitors - cell viability counter screen (AID 1259365). In a few lines: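 After overnight seeding at 1,500 cells per well, wild-type HCT-116 cultures took up compounds in DMSO for 2hr at 37 C. Viable cell content came from luminescence with CellTiter-Glo.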
Test [11] can be described thus: qHTS assay to identify small molecule antagonists of the sonic hedgehog signaling (Shh) pathway (AID 1259369; calls by dose curve; further: potency means the concentration at half of the fitted maximal effect; nearly all actives have a fitted effect of over 45% in size). To be noted: NIH/3T3 Gli1-Luc reporter, Shh antagonist, luminescence 24 h. In a few lines: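 NIH/3T3-derived Gli1-Luc reporter cells plated 4 h, dosed with compound, then stimulated with conditioned medium for 24 h at 37 C. Firefly luciferase luminescence read after 30 min with detection reagent at room temperature.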

Test [12] is described as follows: Caspase-3/7 induction in HepG2 cells by small molecules, qHTS cell viability counter screen (AID 1346981). Further: potency means the concentration at half of the fitted maximal effect; nearly all actives have a fitted effect of over 30% in size. The settings on record: CellTiter-Fluor fluorescence, 17 h. An outline of the steps: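 Wild-type HepG2 cells, 2,000/well, settled 5 hr at 37 C, 5% CO2 before compound addition. Viability read by CellTiter-Fluor fluorescence, reagent added after 16 hr compound exposure, then 1 hr at 37C, in the same wells as the caspase read.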

Test [13] concerns the target Nuclear receptor subfamily 1 group I member 2 (Homo sapiens) (UniProt O75469). As to the kind of experiment: Human pregnane X receptor (PXR) small molecule agonists, qHTS assay (AID 1346982). Further: potency means the concentration at half of the fitted maximal effect; nearly all actives have a fitted effect of over 35% in size. The settings on record: PXR-Luc HepG2, CYP3A4 luciferase reporter, 24 h. In a few lines:
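PXR-Luc HepG2 reporter cells (CYP3A4-driven luciferase) in 5% charcoal-stripped FBS medium, plated 5 h before compound addition, then treated 24 h at 37C. Luciferase read by ONE-Glo luminescence after 30 min at room temperature.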

The nature of test [14]: qHTS assay to test for compound auto fluorescence at 535 nm (green) in HEK293 cells (AID 720680). Further: on the % scale 0 is the no-effect control and ±100 the full control effect. The settings on record: green autofluorescence 485/535 nm; at 46 µM (top of the series). The text has this:
U.S. Tox21 Program National Center for Advancing Translational Sciences [NCATS] NIH Chemical Genomics Center [NCGC] U.S. Environmental Protection Agency [EPA] National Institutes of Environmental Health Sciences [NIEHS] National Toxicology Program [NTP] U.S. Food and Drug Administration [FDA] Tox21 Assay Overview: Compound auto fluorescence often interferes with screening of the compound library against various biological targets and signaling pathways. Some of these compounds may have fluorophoric properties. Such properties may interfere with the assay outputs resulting in false positives and/or negatives. To decrease such complications and ensure the compound activities are relevant in terms of biological response, the Tox21 10K compound library was screened for auto fluorescence. From the fluorophores used as reporter signals in our screening assays, the auto fluorescence equivalencies of compounds against three fluorophores have been evaluated: Triamterene, Fluorescein and Rose Bengal sodium for blue, green and red fluorescence, respectively. The fluorescence intensities were measured using Excitation/Emission wavelengths at 405/460nm, 485/535nm and 540/590nm for blue, green and red labels, respectively. This assay includes the green fluorescence data. […]

The nature of test [15]: qHTS assay to identify small molecule agonists of the endoplasmic reticulum stress response signaling pathway - cell viability counter screen (AID 1159517; calls by dose curve). An outline of the steps:
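CellTiter-Glo was added to wells already read for beta-lactamase FRET, and luminescence was recorded 30 min later. Cells: ESRE-bla HeLa, 1,500 per well, compound exposure 5 hr at 37 C.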

For test [16], the target named is Nuclear receptor subfamily 1 group I member 3 (Homo sapiens) (UniProt Q14994). The test can be described thus: qHTS assay to identify small molecule agonists of the constitutive androstane receptor (CAR) signaling pathway (AID 1224839).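 Further: HepG2 cells stably carrying human CAR and a CYP2B6 luciferase reporter; on the % scale 0 is the no-effect control and ±100 the full control effect; nearly all actives have a fitted effect of over 15% in size.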
Test [17] is described as follows: qHTS RealTime-Glo MT Cell Viability Assay in HEK293 cells - 16 hour (AID 1224872). An outline of the steps: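 HEK293 cells seeded with NanoLuc/prosubstrate reagent, rested 5 h at 37 C, then dosed and kept at 37 C up to 40 h. Nonlytic real-time luminescence from viable cells read at 0, 8, 16, 24, 32 and 40 h.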
Test [18] in a line: qHTS assay to identify small molecule agonists or antagonists of the thyroid stimulating hormone receptor (TSHR) signaling pathway - wild type cell line counter screen (AID 1259384; calls by dose curve; further: on the % scale 0 is the no-effect control and ±100 the full control effect). To be noted: HEK293 wild type, cAMP HTRF counter-screen, active compounds read high; at 92.4 µM (top of the series). An outline of the steps:
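Wild-type HEK293 cells were plated 18 h at 37 C/5% CO2, pin-dosed with compound plus Ro20-1724 medium, held 30 min at room temperature, then given cAMP-d2 and anti-cAMP-cryptate; fluorescence was read after 1 h. Fifteen concentrations, triplicate.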

As to `CC(C)OP(C)(=O)OC(C)C`, the Potency entry in test [1], in test [3] and in [5] was “inactive” throughout. For the same compound, the Potency in test [2] and in test [4] was active: 27.3 µM in each case.

For `Cc1ccc([N+](=O)[O-])cc1[N+](=O)[O-]`, in [6], the activation is inactive: -1.89%. Also, the Potency entry in test [7], in test [8], in [3], in test [9] and in [5] was “inactive” each time. For the same compound, the Potency is active: 26.9 µM in test [10], active: 6.76 µM in test [11], active: 26.9 µM in test [12] and active: 15.1 µM in [13].

Turning to `OCCSCCO`, in [14], the fluorescence, % of fluorescein was inactive: -0.0069%. In addition, the Potency result in [15], in test [16] and in test [17] was “inactive” each time.

Turning to `O=C(Cl)OCCOC(=O)Cl`, in [2], the Potency is active: 10.9 µM. Also, in [18], the cAMP activity change is inactive: -1.41%.

On to `Cc1cccc([N+](=O)[O-])c1[N+](=O)[O-]`, for which, in test [15], the Potency entry is “inactive”.
